# Experimental data taken from patent US20180044685A1, “APPLICATION OF SYK SERVING AS THERAPEUTIC TARGET FOR HEPATIC FIBROSIS/HEPATIC CIRRHOSIS” (priority 2015, published 2018).
# Tests used:
# human primary HSCs = settings: GS-9973 1 μM, 24, 48 and 72 hours, along with prolongation of treatment time
# SYK kinase = SYK kinase (Homo sapiens, UniProt P43405); settings: compared with Fostamatinib (R788), R406 and PRT062607 HCl; cited from earlier work
smiles,measurement,setting,value
"c1cn2cc(-c3ccc4cn[nH]c4c3)nc(Nc3ccc(N4CCOCC4)cc3)c2n1 [GS-9973, Entospletinib]",inhibition effect on cell proliferation,human primary HSCs,obvious inhibition effect
same,activity in inhibiting SYK kinase,SYK kinase,most stable and significant activity
